Patent publication US20240158369A1, “PYRIMIDINE COMPOUND AS WEE-1 INHIBITOR” (WIGEN BIOMEDICINE TECHNOLOGY (SHANGHAI) CO., LTD., priority 2021, published 2024)

Sequences of proteins named here, by UniProt entry; tags and fusion partners are left off.
UniProt P30291, whole entry: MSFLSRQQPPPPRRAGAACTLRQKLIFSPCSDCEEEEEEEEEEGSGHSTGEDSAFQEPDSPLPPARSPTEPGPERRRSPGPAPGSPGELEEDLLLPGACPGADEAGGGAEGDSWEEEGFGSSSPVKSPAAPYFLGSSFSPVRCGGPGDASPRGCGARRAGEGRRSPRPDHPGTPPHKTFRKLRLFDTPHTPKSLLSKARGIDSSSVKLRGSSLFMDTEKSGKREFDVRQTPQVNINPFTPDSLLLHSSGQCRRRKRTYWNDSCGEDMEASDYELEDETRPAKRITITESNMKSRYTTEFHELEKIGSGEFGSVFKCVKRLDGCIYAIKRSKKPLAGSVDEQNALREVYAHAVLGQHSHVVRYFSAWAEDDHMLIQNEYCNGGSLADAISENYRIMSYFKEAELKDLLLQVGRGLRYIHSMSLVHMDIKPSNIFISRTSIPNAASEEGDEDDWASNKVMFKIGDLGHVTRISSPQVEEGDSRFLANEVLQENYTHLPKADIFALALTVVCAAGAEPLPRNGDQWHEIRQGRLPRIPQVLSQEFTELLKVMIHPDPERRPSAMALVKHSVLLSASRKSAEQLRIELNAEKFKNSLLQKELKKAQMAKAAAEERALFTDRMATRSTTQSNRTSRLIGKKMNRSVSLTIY

Key:
[1] = biological target: recombinant protein Wee-1 (Homo sapiens (Human), UniProt P30291); experiment: HTRF assay for inhibiting enzymatic activity of recombinant protein Wee-1; format: biochemical; settings: read-out: (IC50) Inhibitory activity against recombinant protein Wee-1, compounds up to 200 nM
MIA PaCa-2 cells = experiment: In-vitro anti-proliferative activity in combination with gemcitabine on MIA PaCa-2 cells; format: cell-based; settings: read-out: in combination with 20 nM GMC IC50, 72 h, with 20 nM gemcitabine

| SMILES | IC50 [1] [nM] | IC50 (MIA PaCa-2 cells) [nM] |
| --- | --- | --- |
| CC(C)N1CCc2ccc(Nc3ncc(C#N)c(Nc4cccc(N=S(C)(C)=O)n4)n3)cc2C1 | < 10 |  |
| CN1CCc2c(CCCO)cc(Nc3ncc(C#N)c(Nc4cccc(N=S(C)(C)=O)n4)n3)cc2C1 | < 10 | 1.1 |
